Values of other authors in patent publication US20100012891A1, “Tooth Whitening Compositions and Methods” (priority 2008, published 2010).

Details: chlorite ion/chlorous acid equilibrium

Substance: chlorite [chlorite ion]
- pKa: 1.8
